As a reminder, the IC50 is the concentration that inhibits the measured activity by half. The low end stands for greater potency, the high end for weaker potency.

The chains behind the UniProt entries cited, without tags or fusion partners. Residues count along the entry.
UniProt O00408, 2-941: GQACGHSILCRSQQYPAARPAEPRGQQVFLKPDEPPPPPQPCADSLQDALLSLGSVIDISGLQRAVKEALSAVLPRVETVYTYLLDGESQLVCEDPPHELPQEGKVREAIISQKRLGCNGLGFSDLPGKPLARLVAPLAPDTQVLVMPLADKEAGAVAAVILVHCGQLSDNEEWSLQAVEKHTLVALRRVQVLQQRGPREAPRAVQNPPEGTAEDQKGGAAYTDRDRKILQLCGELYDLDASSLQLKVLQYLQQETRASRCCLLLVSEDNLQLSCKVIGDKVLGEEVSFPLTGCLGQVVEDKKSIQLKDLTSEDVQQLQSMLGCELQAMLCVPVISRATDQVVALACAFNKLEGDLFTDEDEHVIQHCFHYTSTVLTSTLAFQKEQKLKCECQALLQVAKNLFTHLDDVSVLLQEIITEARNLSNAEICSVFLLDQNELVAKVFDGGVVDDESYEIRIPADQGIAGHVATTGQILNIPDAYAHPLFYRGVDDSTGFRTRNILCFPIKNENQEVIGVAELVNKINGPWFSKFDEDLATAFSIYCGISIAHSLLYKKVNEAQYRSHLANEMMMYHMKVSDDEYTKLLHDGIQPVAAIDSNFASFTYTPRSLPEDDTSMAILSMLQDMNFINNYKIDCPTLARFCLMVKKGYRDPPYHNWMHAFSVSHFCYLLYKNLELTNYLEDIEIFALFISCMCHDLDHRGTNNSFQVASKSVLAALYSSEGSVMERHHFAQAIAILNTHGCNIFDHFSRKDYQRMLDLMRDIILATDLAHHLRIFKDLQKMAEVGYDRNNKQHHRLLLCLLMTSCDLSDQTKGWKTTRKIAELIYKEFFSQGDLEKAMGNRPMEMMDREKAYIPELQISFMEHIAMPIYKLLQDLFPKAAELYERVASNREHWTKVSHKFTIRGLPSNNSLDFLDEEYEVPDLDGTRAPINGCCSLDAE

The first experiment has as its target FLAG-tagged PDE2A1 (amino acids 2-941) (Homo sapiens (Human), UniProt O00408). Description: IMAP TR-FRET PDE2A phosphodiesterase enzymatic assay.
Conditions: not given
On the technique in general: In TR-FRET formats the signal depends on donor and acceptor labels being close together.
With `Cc1cc(C2CCCN(Cc3cn(C)c4ccccc34)C2)n2ncnc2n1` (stereo not drawn) [Example 46, 1-Methyl-3-[(3-{5-methyl-[1,2,4]triazolo[1,5-a]pyrimidin-7-yl}piperidin-1-yl)methyl]-1H-indole], the IC50 was greater than 10 µM.

Consider `Cc1cc(C2CCCN(Cc3ccc(N4CCCCC4)cc3)C2)n2ncnc2n1` (stereo not drawn) [Example 47, 3-{5-Methyl-[1,2,4]triazolo[1,5-a]pyrimidin-7-yl}-1-{[4-(piperidin-1-yl)phenyl]methyl}piperidine], for which the IC50 is greater than 10 µM.

The compound `Cc1cc(C2CCCN(Cc3cccnc3)C2)n2ncnc2n1` (stereo not drawn) [Example 48, 3-[(3-{5-Methyl-[1,2,4]triazolo[1,5-a]pyrimidin-7-yl}piperidin-1-yl)methyl]pyridine] came in with an IC50 greater than 10 µM.

In turn, `Cc1cc(C2CCCN(Cc3cccc(-c4ccccn4)c3)C2)n2ncnc2n1` (stereo not drawn) [Example 49, 2-{3-[(3-{5-Methyl-[1,2,4]triazolo[1,5-a]pyrimidin-7-yl}piperidin-1-yl)methyl]phenyl}pyridine] gave an IC50 of 1 to 10 µM.

In turn, `Cc1cc(C2CCCN(Cc3ccccc3N3CCOCC3)C2)n2ncnc2n1` (stereo not drawn) [Example 50, 4-{2-[(3-{5-Methyl-[1,2,4]triazolo[1,5-a]pyrimidin-7-yl}piperidin-1-yl)methyl]phenyl}morpholine] displayed an IC50 greater than 10 µM.

Consider `Cc1ccc(CN2CCCC(c3cc(C)nc4ncnn34)C2)c(C)n1` (stereo not drawn) [Example 52, 2,6-Dimethyl-3-[(3-{5-methyl-[1,2,4]triazolo[1,5-a]pyrimidin-7-yl}piperidin-1-yl)methyl]pyridine], for which the IC50 is greater than 10 µM.

As to `Cc1cc(C2CCCN(Cc3ccccn3)C2)n2ncnc2n1` (stereo not drawn) [Example 54, 2-[(3-{5-Methyl-[1,2,4]triazolo[1,5-a]pyrimidin-7-yl}piperidin-1-yl)methyl]pyridine], the IC50 is greater than 10 µM.

The compound `Cc1cc(C2CCCN(Cc3ccc(Cl)cc3Cl)C2)n2ncnc2n1` (stereo not drawn) [Example 55, 1-[(2,4-Dichlorophenyl)methyl]-3-{5-methyl-[1,2,4]triazolo[1,5-a]pyrimidin-7-yl}piperidine] yielded an IC50 greater than 10 µM.

Compound `Cc1cc(C2CCCN(Cc3ccc(-n4cccc4)cc3)C2)n2ncnc2n1` (stereo not drawn) [Example 56, 3-{5-Methyl-[1,2,4]triazolo[1,5-a]pyrimidin-7-yl}-1-{[4-(1H-pyrrol-1-yl)phenyl]methyl}piperidine] had an IC50 of 0.1 to 1 µM.

In turn, `Cc1cc(C2CCCN(Cc3cc4ccccc4s3)C2)n2ncnc2n1` (stereo not drawn) [Example 57, 1-(1-Benzothiophen-2-ylmethyl)-3-{5-methyl-[1,2,4]triazolo[1,5-a]pyrimidin-7-yl}piperidine] showed an IC50 of 0.1 to 1 µM.

Turning to `Cc1cc(C2CCCN(Cc3cnn(-c4ccccc4)c3)C2)n2ncnc2n1` (stereo not drawn) [Example 58, 3-{5-Methyl-[1,2,4]triazolo[1,5-a]pyrimidin-7-yl}-1-[(1-phenyl-1H-pyrazol-4-yl)methyl]piperidine], the IC50 was greater than 10 µM.

With `Cc1cc(C2CCCN(Cc3ccc(N4CCCC4)cc3)C2)n2ncnc2n1` (stereo not drawn) [Example 59, 3-{5-Methyl-[1,2,4]triazolo[1,5-a]pyrimidin-7-yl}-1-{[4-(pyrrolidin-1-yl)phenyl]methyl}piperidine], the IC50 was greater than 10 µM.

In turn, `Cc1cc(C2CCCN(Cc3cc(Cl)ccc3Cl)C2)n2ncnc2n1` (stereo not drawn) [Example 60, 1-[(2,5-Dichlorophenyl)methyl]-3-{5-methyl-[1,2,4]triazolo[1,5-a]pyrimidin-7-yl}piperidine] yielded an IC50 of 0.1 to 1 µM.

In the case of `Cc1cc(C2CCCN(Cc3ccccc3-n3cccn3)C2)n2ncnc2n1` (stereo not drawn) [Example 61, 3-{5-Methyl-[1,2,4]triazolo[1,5-a]pyrimidin-7-yl}-1-{[2-(1H-pyrazol-1-yl)phenyl]methyl}piperidine], the IC50 is greater than 10 µM.

The compound `COc1cc(Cl)ccc1CN1CCCC(c2cc(C)nc3ncnn23)C1` (stereo not drawn) [Example 62, 1-[(4-Chloro-2-methoxyphenyl)methyl]-3-{5-methyl-[1,2,4]triazolo[1,5-a]pyrimidin-7-yl}piperidine] returned an IC50 greater than 10 µM.

On to `COc1cc(CN2CCCC(c3cc(C)nc4ncnn34)C2)ccc1C` (stereo not drawn) [Example 63, 1-[(3-Methoxy-4-methylphenyl)methyl]-3-{5-methyl-[1,2,4]triazolo[1,5-a]pyrimidin-7-yl}piperidine], for which the IC50 is greater than 10 µM.

Consider `COc1ccc(CN2CCCC(c3cc(C)nc4ncnn34)C2)c(OC)c1` (stereo not drawn) [Example 64, 1-[(2,4-Dimethoxyphenyl)methyl]-3-{5-methyl-[1,2,4]triazolo[1,5-a]pyrimidin-7-yl}piperidine], for which the IC50 is greater than 10 µM.

On to `Cc1cc(C2CCCN(Cc3cccc4c3OCO4)C2)n2ncnc2n1` (stereo not drawn) [Example 65, 1-(2H-1,3-Benzodioxol-4-ylmethyl)-3-{5-methyl-[1,2,4]triazolo[1,5-a]pyrimidin-7-yl}piperidine], for which the IC50 was greater than 10 µM.

For the compound `Cc1cc(C2CCCN(Cc3c(Cl)cccc3Cl)C2)n2ncnc2n1` (stereo not drawn) [Example 66, 1-[(2,6-Dichlorophenyl)methyl]-3-{5-methyl-[1,2,4]triazolo[1,5-a]pyrimidin-7-yl}piperidine], the IC50 was 1 to 10 µM.

In turn, `Cc1cc(C2CCCN(Cc3ccccc3-n3ccnc3)C2)n2ncnc2n1` (stereo not drawn) [Example 67, 1-{[2-(1H-Imidazol-1-yl)phenyl]methyl}-3-{5-methyl-[1,2,4]triazolo[1,5-a]pyrimidin-7-yl}piperidine] came in with an IC50 greater than 10 µM.

The compound `Cc1cc(C2CCCN(Cc3ccc(Cl)cc3)C2)n2ncnc2n1` (stereo not drawn) [Example 68, 1-[(4-Chlorophenyl)methyl]-3-{5-methyl-[1,2,4]triazolo[1,5-a]pyrimidin-7-yl}piperidine] yielded an IC50 of 0.1 to 1 µM.

Consider `Cc1cc(C2CCCN(Cc3ccc4ccccc4n3)C2)n2ncnc2n1` (stereo not drawn) [Example 69, 2-[(3-{5-Methyl-[1,2,4]triazolo[1,5-a]pyrimidin-7-yl}piperidin-1-yl)methyl]quinoline], for which the IC50 fell in the range of 0.1 to 1 µM.

In the case of `COc1ccccc1CN1CCCC(c2cc(C)nc3ncnn23)C1` (stereo not drawn) [Example 70, 1-[(2-Methoxyphenyl)methyl]-3-{5-methyl-[1,2,4]triazolo[1,5-a]pyrimidin-7-yl}piperidine], the IC50 was greater than 10 µM.

In turn, `Cc1cc(C2CCCN(Cc3c(F)cc(Cl)cc3F)C2)n2ncnc2n1` (stereo not drawn) [Example 71, 1-[(4-Chloro-2,6-difluorophenyl)methyl]-3-{5-methyl-[1,2,4]triazolo[1,5-a]pyrimidin-7-yl}piperidine] gave an IC50 greater than 10 µM.

For the compound `COc1ccc(OC)c(CN2CCCC(c3cc(C)nc4ncnn34)C2)c1` (stereo not drawn) [Example 72, 1-[(2,5-Dimethoxyphenyl)methyl]-3-{5-methyl-[1,2,4]triazolo[1,5-a]pyrimidin-7-yl}piperidine], the IC50 is greater than 10 µM.

`Cc1cc(C2CCCN(Cc3ccc4c(c3)OCCO4)C2)n2ncnc2n1` (stereo not drawn) [Example 73, 1-(2,3-Dihydro-1,4-benzodioxin-6-ylmethyl)-3-{5-methyl-[1,2,4]triazolo[1,5-a]pyrimidin-7-yl}piperidine]: the IC50 is greater than 10 µM.

For `Cc1cc(C2CCCN(Cc3c(C)cccc3Cl)C2)n2ncnc2n1` (stereo not drawn) [Example 74, 1-[(2-Chloro-6-methylphenyl)methyl]-3-{5-methyl-[1,2,4]triazolo[1,5-a]pyrimidin-7-yl}piperidine], the IC50 is greater than 10 µM.

In the case of `Cc1cc(C2CCCN(Cc3ccccc3Cl)C2)n2ncnc2n1` (stereo not drawn) [Example 75, 1-[(2-Chlorophenyl)methyl]-3-{5-methyl-[1,2,4]triazolo[1,5-a]pyrimidin-7-yl}piperidine], the IC50 is greater than 10 µM.

`Cc1ccc(CN2CCCC(c3cc(C)nc4ncnn34)C2)cc1` (stereo not drawn) [Example 76, 3-{5-Methyl-[1,2,4]triazolo[1,5-a]pyrimidin-7-yl}-1-[(4-methylphenyl)methyl]piperidine]: the IC50 lay within 0.1 to 1 µM.

On to `Cc1cc(C2CCCN(Cc3cccc(-n4cccn4)c3)C2)n2ncnc2n1` (stereo not drawn) [Example 77, 3-{5-Methyl-[1,2,4]triazolo[1,5-a]pyrimidin-7-yl}-1-{[3-(1H-pyrazol-1-yl)phenyl]methyl}piperidine], for which the IC50 was 0.1 to 1 µM.

For `Cc1cc(C2CCCN(Cc3ccccc3)C2)n2ncnc2n1` (stereo not drawn) [Example 78, 1-Benzyl-3-{5-methyl-[1,2,4]triazolo[1,5-a]pyrimidin-7-yl}piperidine], the IC50 is greater than 10 µM.

Take `Cc1cc(C2CCCN(Cc3ccc(F)c(Cl)c3)C2)n2ncnc2n1` (stereo not drawn) [Example 79, 1-[(3-Chloro-4-fluorophenyl)methyl]-3-{5-methyl-[1,2,4]triazolo[1,5-a]pyrimidin-7-yl}piperidine]: the IC50 lay within 1 to 10 µM.

Regarding `Cc1cc(C2CCCN(Cc3ccc(OC(C)C)cc3)C2)n2ncnc2n1` (stereo not drawn) [Example 80, 3-{5-Methyl-[1,2,4]triazolo[1,5-a]pyrimidin-7-yl}-1-{[4-(propan-2-yloxy)phenyl]methyl}piperidine], the IC50 was greater than 10 µM.

On to `COc1cccc(CN2CCCC(c3cc(C)nc4ncnn34)C2)c1F` (stereo not drawn) [Example 81, 1-[(2-Fluoro-3-methoxyphenyl)methyl]-3-{5-methyl-[1,2,4]triazolo[1,5-a]pyrimidin-7-yl}piperidine], for which the IC50 is greater than 10 µM.

With `Cc1cc(C2CCCN(Cc3ccc(F)cc3)C2)n2ncnc2n1` (stereo not drawn) [Example 82, 1-[(4-Fluorophenyl)methyl]-3-{5-methyl-[1,2,4]triazolo[1,5-a]pyrimidin-7-yl}piperidine], the IC50 was greater than 10 µM.

Consider `Cc1cc(C2CCCN(Cc3ccc(C(C)C)cc3)C2)n2ncnc2n1` (stereo not drawn) [Example 84, 3-{5-Methyl-[1,2,4]triazolo[1,5-a]pyrimidin-7-yl}-1-{[4-(propan-2-yl)phenyl]methyl}piperidine], for which the IC50 was greater than 10 µM.

On to `COc1ccc(CN2CCCC(c3cc(C)nc4ncnn34)C2)c(C)c1` (stereo not drawn) [Example 85, 1-[(4-Methoxy-2-methylphenyl)methyl]-3-{5-methyl-[1,2,4]triazolo[1,5-a]pyrimidin-7-yl}piperidine], for which the IC50 was greater than 10 µM.

In the case of `COc1ccc(CN2CCCC(c3cc(C)nc4ncnn34)C2)cc1Cl` (stereo not drawn) [Example 86, 1-[(3-Chloro-4-methoxyphenyl)methyl]-3-{5-methyl-[1,2,4]triazolo[1,5-a]pyrimidin-7-yl}piperidine], the IC50 is 1 to 10 µM.

The experiment is the same for the next values; noted with them: IMAP TR-FRET, 200 nM FAM-cAMP substrate, 11-point half-log dose-response.
`Cc1cc(C2CCCN(Cc3ccc(Cl)c(F)c3)C2)n2ncnc2n1` (stereo not drawn) [Example 83, 1-[(4-Chloro-3-fluorophenyl)methyl]-3-{5-methyl-[1,2,4]triazolo[1,5-a]pyrimidin-7-yl}piperidine]: the “PDE2 (pIC50)” value is greater than 7.
